Reference: patent publication US8168679B2, “Salts of Tramadol and Naproxen and their crystal forms in the treatment of pain” (Laboratorios del Dr. Esteve, S.A., priority 2007, dated 2012)

Experiment: Determination of the hygroscopicity of the crystalline salts (weight variation and Karl Fischer in humidity chamber)
Format: physicochemical
Text: The objective was to measure the hygroscopicity of the salts of the present invention, and comparing it with the one of the known salt of each counter part of the salts. The increasing of the weight will be measured in order to evaluate the incorporation of water in the samples, together with the Karl Fischer factor.
According to “Technical guide for the elaboration of monographs” special issue PharmaEuropa, 3rd ed., December 1999, the hygroscopicity is defined based on the augmentation of weight after 24 hours of exposition to 80% of relative humidity at 25° C. The scale is the following:
Methods: • Preparation of the Humidity chamber: A supersaturated solution of sodium nitrite (45 g/50 ml) is prepared and introduced in a humidification chamber (samplaterecord). The chamber is maintained at a temperature of 25±2° C. during 24 hours before use, and humidity is controlled each day. […] 102.2 mg of sodium naproxen. • The samples are introduced in the conditioned humidity chamber, and the weight is controlled after 24 hours, 48 hours, and 6 days, till an equilibrium is reached (2 successive control with a variation of weight less than 0.2 mg). • The Karl Fischer is also determined (using a Methrom 756 KF) at the beginning and at the end of the study.
The variation of the weight is controlled and the following percentage is calculated: Δ% weigth=(Pn−P1)/P1×100 wherein: P1 is the initial weight, Pn is the weight measured for the sample.

Substance: (R,R)-Tramadol-(S)-Naproxene Salt [Example 2]
- KF (t = 0) (Karl Fischer value at the beginning of the study): 0.34
- KF (t = 6 days) (Karl Fischer value at the end of the study, 6 days in humidity chamber): 0.2
- hygroscopicity according to the scale (class by % incorporation of water): not hygroscopic
- observation of the powder in the course of the experiment (humidity chamber, 64% relative humidity, 25±2° C.): remains a powder
- Δ % weigth 24 h (humidity chamber, 64% relative humidity, 25±2° C., 24 h): 0%
- Δ % weigth 48 h (humidity chamber, 64% relative humidity, 25±2° C., 48 h): 0%
- Δ % weigth 6 days (humidity chamber, 64% relative humidity, 25±2° C., 6 days): 0%
